Experimental data reported in US7837670B2, “Methods and devices for delivering therapeutic agents into the prostate gland” (Boston Scientific Scimed, Inc., priority 2005, dated 2010).

Test system: prostate tissue of elderly dogs with proven prostatic hyperplasia
Test: Histology (H&E) of the prostate 4 days after local injection into prostate tissue
Conditions: 4 days after 1 ml of 5 mCi injected locally into the prostate; one dog, FIG. 16

## 99mTc complexed with hexamethyl-propyleneamine oxime
  state of the prostatic glands (H&E section): almost completely destroyed
  state of the prostatic stroma (H&E section): infiltrated with inflammatory cells
